System: Healthy PBMC (Peripheral Blood Mononuclear Cells)
Experiment: Cell viability of healthy PBMC
Conditions: PBMC tests compared to tumour cell line tests
Protocol: All cell lines were plated in black, tissue culture treated, 96 well plates at a cell density of 1×10^5 celis/mL (1×10^4 cells/well). Cells were allowed 24 h to attach to the plate prior to being dosed with drug. […] Cells were allowed to incubate for 48 or 72 h. Following incubation cells were stained with Alamar Blue such that the final concentration of Alamar Blue in the test well was 10%. Cells were stained for 2 h and then fluorescence was measured on a Molecular Devices Analyst GT multimode plate reader using an excitation filter of 530/25 nm and an emission filter of 580/10 nm and a 561 nm dichroic mirror. Cell viability was expressed as a percentage of untreated control cells. Data are expressed as mean±standard error and are the average of four independent cell preparations.
Healthy PBMC (Peripheral Blood Mononuclear Cells) were treated similarly to the above tumour cell line tests.

O=C1N[C@@H]2C(=C[C@H](O)[C@@H](O)[C@H]2O)c2cc3c(c(O)c21)OCO3 [narciclasine, reference compound]
selectivity for cancer cells over healthy cells: selectively kill cancer cells at a much higher percentage than healthy cells

Reference: patent US20140234345A1, “NOVEL ANTI-CANCER ISOCARBOSTYRIL ALKALOID CONJUGATES” (priority 2011, published 2014)
